Laboratory results: patent US9803002B2, “Anti-wall teichoic antibodies and conjugates” (Genentech, Inc., priority 2013, dated 2017)

How the values were obtained:
[1] = system: USA300; assay: Cell based FRET cleavage assay; design: species or system Staphylococcus aureus; conditions: 2 μM FRET peptide, 10^8 and 10^7 cells/ml, 37° C.
Protocol: (§1) The thio-S4497-MP-K(Tamra)[…](Fluorescein) (“core peptide” disclosed as SEQ ID NO: 125) FRET conjugate and non-binding control FRET conjugate, thio-trastuzumab-MP-K(Tamra)[…](Fluorescein) (“core peptide” disclosed as SEQ ID NO: 125), were incubated with log phase cultures of Wood46 (FIG. 28) and the wild type, USA300 (FIG. 29), at cell densities of 10^8 cells/ml and 10^7 cells/ml in tryptic soy broth (TSB). The final concentration of MP-Lys(TAMRA)-[…]fluorescein) (“core peptide” disclosed as SEQ ID NO: 125) for all wells was 2 μM. Fluorescence was monitored over time at 37° C., excitation λ495 nm/emission λ518 nm. […] The linker unit MP-K(Tamra)[…](Fluorescein) (“core peptide” disclosed as SEQ ID NO: 125) is cleaved in both Wood46 and USA300 when conjugated to an antibody that binds S. aureus. Validating the cleavage of this model linker in USA300 was critical due to its relevance to the clinical strain of MRSA that a potential therapeutic antibody-antibiotic conjugate (AAC) would target. […] Cell density affects the rate of cleavage, with cleavage occurring earlier in cultures of the higher cell density.
(§2) Cultures of Wood46 and USA300 were inoculated with a 1:200 dilution of overnight cultures (0.1 ml in 20 ml) in TSB and incubated at 37° C. with shaking. […] Plates were incubated at 37° C. and fluorescence was monitored over time, excitation λ495 nm/emission λ518 nm, for 210 minutes.

[2] = system: Wood46; assay: Cell based FRET cleavage assay; design: species or system Staphylococcus aureus; conditions: 2 μM FRET peptide, 10^8 and 10^7 cells/ml, 37° C.
Protocol: as §1, §2

“thio-trastuzumab-MP-K(Tamra)GGAFAGGGK(Fluorescein): non-binding control FRET conjugate on anti-Her2 thioMab trastuzumab” was tested. Which “fluorescence over time (linker cleavage)” value [1] did it give?
The value was “did not show an increase in fluorescence”.

And the “fluorescence over time (linker cleavage)” value [2]?
The value was “did not show an increase in fluorescence”.
